Chains of the proteins cited; added tags and fusions are not shown.
UniProt P08183, whole entry: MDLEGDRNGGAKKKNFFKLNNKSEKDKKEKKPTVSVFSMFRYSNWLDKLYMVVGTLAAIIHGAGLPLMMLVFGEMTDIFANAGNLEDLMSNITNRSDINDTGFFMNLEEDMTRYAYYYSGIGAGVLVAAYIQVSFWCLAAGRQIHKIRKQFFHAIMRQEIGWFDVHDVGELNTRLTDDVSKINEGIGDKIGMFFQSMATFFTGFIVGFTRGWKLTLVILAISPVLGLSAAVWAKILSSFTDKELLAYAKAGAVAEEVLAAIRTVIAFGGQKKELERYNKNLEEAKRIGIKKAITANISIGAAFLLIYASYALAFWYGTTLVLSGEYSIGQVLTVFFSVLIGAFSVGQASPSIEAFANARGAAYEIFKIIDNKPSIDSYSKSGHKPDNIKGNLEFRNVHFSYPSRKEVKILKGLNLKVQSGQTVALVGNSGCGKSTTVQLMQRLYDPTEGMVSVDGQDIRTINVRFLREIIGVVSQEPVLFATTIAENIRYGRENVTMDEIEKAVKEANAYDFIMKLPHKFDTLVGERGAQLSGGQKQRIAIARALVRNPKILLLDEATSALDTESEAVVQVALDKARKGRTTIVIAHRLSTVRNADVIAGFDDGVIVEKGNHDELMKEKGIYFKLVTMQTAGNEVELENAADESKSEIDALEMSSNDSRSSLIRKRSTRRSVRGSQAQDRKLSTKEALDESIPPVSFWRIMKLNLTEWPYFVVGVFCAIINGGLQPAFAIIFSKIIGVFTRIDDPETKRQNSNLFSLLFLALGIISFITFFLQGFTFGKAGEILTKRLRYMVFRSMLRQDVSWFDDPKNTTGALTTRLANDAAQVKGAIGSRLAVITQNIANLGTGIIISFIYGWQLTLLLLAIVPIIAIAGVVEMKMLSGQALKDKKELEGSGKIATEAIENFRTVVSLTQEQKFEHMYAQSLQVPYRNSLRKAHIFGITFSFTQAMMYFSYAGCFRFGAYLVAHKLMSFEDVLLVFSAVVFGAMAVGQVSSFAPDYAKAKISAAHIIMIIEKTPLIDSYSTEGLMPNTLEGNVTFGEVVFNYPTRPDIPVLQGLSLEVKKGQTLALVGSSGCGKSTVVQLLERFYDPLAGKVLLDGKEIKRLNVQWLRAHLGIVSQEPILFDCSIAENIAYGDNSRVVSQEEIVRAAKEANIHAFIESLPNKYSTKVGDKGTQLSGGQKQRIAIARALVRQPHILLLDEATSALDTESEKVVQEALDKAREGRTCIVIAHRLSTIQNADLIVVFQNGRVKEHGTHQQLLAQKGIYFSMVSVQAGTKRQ

The experiment has as its target ATP-dependent translocase ABCB1 (Homo sapiens, UniProt P08183). The experiment is described as follows: Inhibition of P-glycoprotein-mediated multidrug resistance in adriamycin-resistant human A2780/ADR cells by calcein AM assay. The experiment is classed as cell-based.
Take `O=C(Nc1ccc(CCN2CCc3ccccc3C2)cc1)c1cnc2ccccc2c1`: the half-inhibitory concentration (IC50) is 0.43 µM.

Take `COc1cc2c(cc1OC)CN(CCc1ccc(NC(=O)c3cc(OC)c(OC)cc3[N+](=O)[O-])cc1)CC2`: the IC50 was 13 µM.

Regarding `COc1cc2c(cc1OC)CN(CCc1ccc(NC(=O)c3ccc(Br)cc3)cc1)CC2`, the concentration for half-maximal inhibition (IC50) was 2.4 µM.

For the compound `Nc1ccccc1C(=O)Nc1ccc(CCN2CCc3ccccc3C2)cc1`, the IC50 is 9.9 µM.

The record behind these values is ChEMBL document CHEMBL1152794, “Synthesis and biological evaluation of a small molecule library of 3rd generation multidrug resistance modulators” (Bioorg Med Chem, 2009).
